This note sets out measurements from patent US9403810B2, “Carboxamide derivatives” (Novartis AG, priority 2014, dated 2016).

The chains behind the UniProt entries cited, without tags or fusion partners.
UniProt Q9HCE7, whole entry: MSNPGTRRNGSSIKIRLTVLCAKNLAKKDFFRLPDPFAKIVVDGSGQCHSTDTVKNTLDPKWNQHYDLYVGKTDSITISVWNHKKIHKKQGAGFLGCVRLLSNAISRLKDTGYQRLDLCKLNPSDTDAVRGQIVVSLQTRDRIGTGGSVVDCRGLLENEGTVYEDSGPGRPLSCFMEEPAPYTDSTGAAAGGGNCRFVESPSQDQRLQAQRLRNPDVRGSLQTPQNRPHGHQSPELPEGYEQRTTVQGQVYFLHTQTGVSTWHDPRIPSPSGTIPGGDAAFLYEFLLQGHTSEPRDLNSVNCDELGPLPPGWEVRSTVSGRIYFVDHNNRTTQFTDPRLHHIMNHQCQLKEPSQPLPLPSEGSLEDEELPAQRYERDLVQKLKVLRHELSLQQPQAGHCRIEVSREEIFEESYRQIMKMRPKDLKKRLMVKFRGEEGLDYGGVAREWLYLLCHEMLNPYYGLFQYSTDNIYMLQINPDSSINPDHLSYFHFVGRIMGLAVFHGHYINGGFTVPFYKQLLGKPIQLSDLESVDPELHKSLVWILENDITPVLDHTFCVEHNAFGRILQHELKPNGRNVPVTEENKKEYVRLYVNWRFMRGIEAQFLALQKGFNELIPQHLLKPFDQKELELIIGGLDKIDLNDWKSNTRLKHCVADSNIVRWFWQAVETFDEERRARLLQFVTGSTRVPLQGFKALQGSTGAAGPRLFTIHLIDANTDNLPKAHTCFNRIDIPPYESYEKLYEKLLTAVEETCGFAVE

The experiment deals with Smurf-1 (Homo sapiens (Human), UniProt Q9HCE7). Put plainly: HECT E3 ligase autoubiquitinylation TR-FRET assay (Smurf-1). The format is biochemical. The settings on record: 8-point dose-response curve, 3 nM to 10 uM; 45 min incubation. The text has this: To determine the HECT E3 ligase selectivity of the compounds, a panel of biochemical HECT E3 ligase autoubiquitinylation assays was employed (Smurf-1, Smurf-2, WWP1, WWP2, ITCH, Nedd4, Nedd4L and E6AP). The conjugation of ubiquitin to a protein substrate is a multistep process. In an initial ATP-requiring step, a thioester bond is formed between the carboxyl terminus of ubiquitin and an internal cystein residue of the ubiquitin-activating enzyme (E1). Activated ubiquitin is then transferred to a specific cystein residue of an ubiquitin-conjugating enzyme (E2). E2s donate ubiquitin to a HECT E3 ligase (E3) from which it is transferred to the substrate protein. HECT E3 ligases can auto-ubiquitinylate. This event is detected in the TR-FRET (Time-Resolved Fluorescence Resonance Energy Transfer) assay used in this panel. The reaction mix contains E1, E2, tagged-E3, biotin-conjugated ubiquitin, the compound and ATP in a suitable buffer and is incubated for 45 minutes to allow auto-ubiquitinylation of the E3 ligase. To measure the extent of ubiquitinylated E3 ligase by TR-FRET, the donor fluorophore Europium cryptate (Eu3+ cryptate), conjugated to streptavidin which subsequently binds to biotinylated ubiquitin, and the modified allophycocyanin XL665 (HTRF® primary acceptor fluorophore) coupled to a tag-specific antibody (HA, His or GST), which recognizes the respective E3 ligase fusion proteins, are added after the reaction is complete. When these two fluorophores are brought together by a bimolecular interaction (in this case ubiquitinylation of the E3 ligase), a portion of the energy captured by the Cryptate during excitation is released through fluorescence emission at 620 nm, while the remaining energy is transferred to XL665. This energy is then released by XL665 as specific fluorescence at 665 nm. Light at 665 nm is emitted only through FRET with Europium.
Test and reference compounds are prepared at 180× [final] in 90% DMSO, and diluted 1:3 in 90% DMSO.
For the biochemical assay panel, 50 nl of the test compounds, reference compounds and buffer/DMSO control are transferred to the respective wells of a 384-well white GREINER “SMALL VOLUME” PS plate. The assay panel is run at room temperature on a Biomek FX liquid handling workstation. To the assay plates containing 50 nl compound or control solutions in 90% DMSO, 4.5 ul of E3 ligase solution were added per well, followed by 4.5 ul of the pre-incubated E1/E2/Ub mix or the pre-diluted ubiquitin (LOW control). Plates are shaken vigorously after each addition. In this assay the compound concentrations range from 3 nM to 10 uM in an 8-point dose-response curve.
After 45 min of incubation the ubiquitinylation reactions were stopped by adding 4.5 ul 2 mM NEM, immediately followed by 4.5 ul of a detection solution including the XL665-labeled antibody and the streptavidin-coupled europium to give a total volume of 18 ul. After an incubation time of 45 min in the dark, the plates are transferred into the Pherastar fluorescence reader to measure the TR-FRET signal.
On the technique in general: In TR-FRET formats the signal depends on donor and acceptor labels being close together.

Consider `Cc1c(C(=O)Nc2c(C)n(C)n(C3CCCCC3)c2=O)noc1[C@H]1CC[C@@H](C)CO1` [Example 22, N-(2-cyclohexyl-1,5-dimethyl-3-oxo-2,3-dihydro-1H-pyrazol-4-yl)-4-methyl-5-((2R,5R)-5-methyltetrahydro-2H-pyran-2-yl)isoxazole-3-carboxamide], for which the IC50 is 570 nM.
`Cc1c(C(=O)Nc2c(C)n(C)n(C3CCCCC3)c2=O)noc1[C@H]1C[C@H](C(C)(C)Br)CO1` (racemic) [Example 23, 5-((2R,4S)-4-(2-bromopropan-2-yl)tetrahydrofuran-2-yl)-N-(2-cyclohexyl-1,5-dimethyl-3-oxo-2,3-dihydro-1H-pyrazol-4-yl)-4-methylisoxazole-3-carboxamide and 5-((2S,4R)-4-(2-bromopropan-2-yl)tetrahydrofuran-2-yl)-N-(2-cyclohexyl-1,5-dimethyl-3-oxo-2,3-dihydro-1H-pyrazol-4-yl)-4-methylisoxazole-3-carboxamide]: the IC50 was found to be 160 nM.
`Cc1c(C(=O)Nc2c(C)n(C)n(C3CCCCC3)c2=O)noc1[C@H]1OC[C@H](C(C)(C)C)O1` (single isomer, unassigned) [Example 25d, 5-(4-(tert-Butyl)-1,3-dioxolan-2-yl)-N-(2-cyclohexyl-1,5-dimethyl-3-oxo-2,3-dihydro-1H-pyrazol-4-yl)-4-methylisoxazole-3-carboxamide] yielded an IC50 of 74 nM.
Regarding `Cc1c(C(=O)Nc2c(C)n(C)n(C3CCCCC3)c2=O)noc1[C@@H]1C[C@@H](C(C)C)CO1` (single isomer, unassigned) [Example 24b, N-(2-Cyclohexyl-1,5-dimethyl-3-oxo-2,3-dihydro-1H-pyrazol-4-yl)-5-((2R,4R)-4-isopropyltetrahydrofuran-2-yl)-4-methylisoxazole-3-carboxamide or N-(2-cyclohexyl-1,5-dimethyl-3-oxo-2,3-dihydro-1H-pyrazol-4-yl)-5-((2S,4S)-4-isopropyltetrahydrofuran-2-yl)-4-methylisoxazole-3-carboxamide], the IC50 stood at 250 nM.
The compound `Cc1c(C(=O)Nc2c(C)n(C)n(C3CCCCC3)c2=O)noc1[C@H]1OC[C@H](C(C)(C)C)O1` (single isomer, unassigned) [Example 25b, 5-(4-(tert-Butyl)-1,3-dioxolan-2-yl)-N-(2-cyclohexyl-1,5-dimethyl-3-oxo-2,3-dihydro-1H-pyrazol-4-yl)-4-methylisoxazole-3-carboxamide] returned an IC50 of 75 nM.

The term IC50 denotes the concentration that gives 50% inhibition. Read a high IC50 as a need for much substance.
